# Tests used:
# [1] = tested on: Blood derived macrophages from ALS patients; conditions: 300uM overnight
# Excerpt: The maj or focus was on regulation of inflammation as compared to normal macrophage functional genes. […] Note that by “housekeeping genes” is meant B2M, HPRT1, RPL13A, GAPDH, and ACTB.
# ALS blood monocytes = conditions: 300uM, 3 days
# COVID-19 patients = conditions: human, in vivo
substance,measurement,setting,value
sodium chlorite [sodium chlorite formulation],cell death,[1],no cell death
same,toxicity to ALS macrophages,ALS blood monocytes,non-toxic
same,toxicity to COVID-19 macrophages,COVID19 blood monocytes,non-toxic
same,tolerability and toxicity in patients,COVID-19 patients,well tolerated and non-toxic
